The source of these data is PubChem BioAssay (NCI).

The entries are a selection whose mix differs from that of the whole data set. Activity calls are given as the source filed them. No stated cut-off is given here; in the data, active means growth inhibition above about 70%; inactive means the rest.

The experiment in a line: NCI Yeast Anticancer Drug Screen. Data for the mlh1 rad18 strain (AID 175). The following applies: S. cerevisiae mlh1 rad18 strain growth inhibition; at 50.0 µM; active compounds read high.
On to `O=C(O)c1ccccc1[As](=O)(O)O`, for which the growth inhibition was inactive: -25.7%.
The same measure for `CC(=O)NC1C(O)OC(CS[As](C)C)C(O)C1O` (configuration not stated): inactive: -35.4%.
To `CCN(CCCl)Cc1ccc2ccccc2c1` belongs inactive: 19.1%; to `n1[nH]nc2c1c1n[nH]nc1c1n[nH]nc21`, inactive: -19.4%.
Consider `[N-]=[N+]=NC/C(N)=N/O`, for which the growth inhibition is inactive: -29.4%.
To `C[N+]1(CCCC[N+]2(C)CCCCCC2)CCCCCC1` belongs inactive: -26.4%; to `CCOP(=O)(OCC)OP1OCC(C)(C)CO1`, inactive: -24.6%.
The same measure for `O=P1(N(CCCl)CCCl)NCCC(C(F)(F)F)O1` (configuration not stated): inactive: 18.2%; for `[N-]=[N+]=NCC(O)CN=[N+]=[N-]` (configuration not stated): inactive: -0.3%.
Consider `COP(OC)c1ccc(C)cc1`, for which the growth inhibition is inactive: 3.15%.
The same measure for `NCCc1ccc(N(CCCl)CCCl)cc1`: inactive: 15.6%; for `O=C(O)CCc1ccc(Oc2cc([N+](=O)[O-])c([N+](=O)[O-])c([N+](=O)[O-])c2)cc1`: inactive: 26.1%; for `CN(C)[P+](On1nnc2ccccc21)(N(C)C)N(C)C`: inactive: -0.95%.
As for `O=C(N=Nc1ccc([N+](=O)[O-])cc1[N+](=O)[O-])NNc1ccc([N+](=O)[O-])cc1[N+](=O)[O-]`, the growth inhibition was inactive: 51.1%.
To `N=P(c1ccccc1)(c1ccccc1)c1ccccc1` belongs inactive: 12.4%; to `ClP(Cc1ccccc1)Cc1ccccc1`, inactive: 15%.
Regarding `Cn1c(COC(=O)N(CCCl)CCCl)cnc1S(C)=O` (configuration not stated), the growth inhibition is inactive: 6.85%.
To `CCOC(=O)NC(c1ccccc1[N+](=O)[O-])P(=O)(O)Nc1ncn[nH]1` (configuration not stated) belongs inactive: -21.6%; to `O=P(OCC(O)CO)(Oc1ccccc1)N(CCCl)CCCl` (configuration not stated), inactive: 4.9%; to `CCOP1(=O)N=C(NC2=NC(C(F)(F)F)(C(F)(F)F)N=C(C(F)(F)F)O2)N(C)C1(C)C` (configuration not stated), inactive: -0.45%.
To `[N-]=[N+]=Nc1ccc([As](=O)(O)O)cc1` belongs inactive: -9.1%; to `C[Si](C)(C)CCCNCCCl`, inactive: 47.8%; to `CC(COC(=O)c1cc([N+](=O)[O-])cc([N+](=O)[O-])c1)OC(=O)c1cc([N+](=O)[O-])cc([N+](=O)[O-])c1` (configuration not stated), inactive: 4.8%.
The same measure for `O=P(NO)(OCc1ccccc1)N(CCCl)CCCl` (configuration not stated): inactive: -4.3%; for `CC1CC[P+](c2ccccc2)(c2ccccc2)Cc2ccccc21` (configuration not stated): inactive: 21.9%.
Turning to `BrP(c1ccccc1)c1ccccc1`, the growth inhibition was inactive: 11.1%.
Consider `CC(C)(C)C1CC(C(F)(F)F)(C(F)(F)F)OP(=O)(Cl)O1` (configuration not stated), for which the growth inhibition was inactive: -0.5%.
Take `Cc1cccc(N[P@]2(Cl)=NP(Cl)(Cl)=N[P@@](Cl)(Nc3cccc(C)c3)=NP(Cl)(Cl)=N2)c1`: the growth inhibition was inactive: 8.85%.
Consider `C/C(=N/Nc1ccc([N+](=O)[O-])cc1[N+](=O)[O-])c1ccc([N+](=O)[O-])cc1`, for which the growth inhibition was inactive: 12.2%.
Take `Nc1ccc(P(=O)(Nc2ccccn2)Nc2ccccn2)cc1`: the growth inhibition was inactive: 12.2%.
The same measure for `CC(/C=C/C(C)=N\Nc1ccc([N+](=O)[O-])cc1[N+](=O)[O-])=N/Nc1ccc([N+](=O)[O-])cc1[N+](=O)[O-]`: inactive: -7.45%.
To `CN1C(=O)N(C)P(=O)(c2ccccc2)P1c1ccccc1` (configuration not stated) belongs inactive: 17.4%; to `N/C(=N\N=C\c1ccc([N+](=O)[O-])o1)N[N+](=O)[O-]`, inactive: 24.9%.
The same measure for `CCCCCCCCCCCCCCCC(=O)OCC(COP(=O)(Oc1ccccc1)N(CCCl)CCCl)OC(=O)CCCCCCCCCCCCCCC` (configuration not stated): inactive: 8.4%; for `[N-]=[N+]=NC(N)=O`: inactive: -23.5%; for `CCCCOc1ccc(N(CCCl)CCCl)cc1`: inactive: -48.5%.
Consider `ClC1=C(Cl)C2(Cl)C3C(SC4C3C3(Cl)C(Cl)=C(Cl)C4(Cl)C3(Cl)Cl)C1(Cl)C2(Cl)Cl` (configuration not stated), for which the growth inhibition is inactive: 2.85%.
